# AlphaSeq binding of Ab-14 light chain variants to a spike HR2 peptide

The measurements come from Li et al. 2023 (doi:10.1038/s41467-023-39022-2) through the FLAb antibody collection.

Target: peptide PDVDLGDISGINAS, taken from heptad repeat 2 (HR2) of SARS-CoV-2 spike.

The variants keep the heavy chain, the linker and the frameworks of Ab-14 (scFv order VH, a 15-residue (Gly4Ser)3 linker, VL).
VH: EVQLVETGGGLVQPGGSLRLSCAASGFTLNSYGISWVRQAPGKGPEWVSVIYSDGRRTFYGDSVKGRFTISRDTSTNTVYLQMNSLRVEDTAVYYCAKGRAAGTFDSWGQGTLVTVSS
VL: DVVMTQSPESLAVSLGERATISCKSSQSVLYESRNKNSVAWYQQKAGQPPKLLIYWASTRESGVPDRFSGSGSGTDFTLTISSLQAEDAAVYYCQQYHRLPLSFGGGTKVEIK

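The variants were designed computationally from a first round of random CDR variants and then made and measured. Their group label is 14L_En_HC (En: ensemble of fine-tuned language models; HC: hill climbing; a sequence that several methods proposed may carry one label only). The assay is AlphaSeq: two haploid yeast populations carry antibody and antigen on their surface. After mating in shaken culture at 30 °C for 16 h, diploids were selected and their barcode pairs sequenced. Scores were corrected for input abundance and mapped to Kd with protein pairs of known affinity run in the same pool. Each pool was mated in six replicate cultures.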

Each variant is given by its three light chain CDRs, as the data file delimits them; those of the parent are KSSQSVLYESRNKNSVA, WASTRES, QQYHRLPLS.
The read-out is the apparent dissociation constant on a log10 scale (nM): the lower, the stronger.
Where no diploid with the target was found in that replicate, the entry reads "nd": below detection, most likely a poor binder, though not proof of it.
Nonspecific signal, from three strains lacking the peptide, appeared in 4% of pairings of all light chain designs, centred on 2.64 (5% of these signals below 1.59); values are not corrected for it. The control count says in how many pairings with the empty strains this scFv gave a signal, with their mean in brackets.

| CDR-L1 | CDR-L2 | CDR-L3 | log10 Kd (nM) by replicate | empty controls |
|---|---|---|---|---|
| TISNSFMMENQFKNSVA | QASTREE | QCYDRLPLS | 1.83 2.58 2.36 3.67 1.14 2.53 | 1 of 18 (2.27) |
| TISQVHEMLSRNKNSVA | DMNTRES | QQYDRLPLS | 2.04 nd 1.35 nd nd nd | 0 of 18 |
| KLSISYLFESLEKQSIA | ENSTREK | QHYHRLPLS | nd nd nd nd nd nd | 1 of 18 (0.87) |
| MISDATMYGSRNKNSVA | DLSTRGS | QQYHRLPLS | 0.14 0.18 0.10 0.02 0.06 0.29 | 0 of 18 |
| KISQMFNVGTKATNSLA | EMNTRGM | QDYHRLPLS | 0.59 1.33 0.50 0.72 0.75 1.11 | 0 of 18 |
| KLSATYRFESNNKSNIA | EMTTRES | QCYHRLPLS | nd 2.08 nd nd nd 2.24 | 1 of 18 (3.39) |
| TISTLMRYETSLKNAIA | NAQTREK | QQYHRLPIS | 0.78 0.44 0.59 0.61 0.69 0.72 | 4 of 18 (2.83) |
| HMSQVTMYGSWNKNSVA | QTSTREE | QQYDRLPLS | nd nd nd nd nd nd | 0 of 18 |
| IISQSVMFQQTLINSVA | NAQTREA | QQYHRLPLS | 0.49 -0.06 -0.01 0.16 -0.07 0.25 | 1 of 18 (4.65) |
| KISMLQRFQSHAKNNIA | EMSRREE | QQYHRLPLS | 0.20 0.39 0.17 0.27 0.31 0.54 | 1 of 18 (2.10) |
| KLSQVTNSEHKLKNSIA | EMVTREK | QQYDRLPLS | 0.57 0.25 0.26 -0.26 0.15 0.55 | 0 of 18 |
| KISQSVNVGSKAKNSLA | EMSTREF | QDYHRLPLS | 1.03 0.51 0.49 0.36 0.57 0.33 | 1 of 18 (3.73) |
| TISYSALMTGLNRNSVA | QAEERLE | QQYHRLPLS | 0.90 2.03 1.86 1.67 1.51 1.48 | 0 of 18 |
| KLSGATRLESGNKASVA | ENSTRGE | QQYFRLPLS | 0.18 0.18 0.28 0.25 0.25 0.40 | 1 of 18 (3.17) |
| KLSQVTHSEHRNKNSIA | EMVTREV | QQYDRLPLS | 1.62 1.32 1.06 1.89 0.71 1.17 | 0 of 18 |
| HLLQTVMYGQTRKNSVA | HAVTREN | QQYHRLPLI | nd 2.12 1.97 nd 1.59 nd | 0 of 18 |
| IVSGGMLMESRNKNSVA | NAETREY | QHYDRLPLS | 1.70 1.56 1.32 1.16 nd 2.64 | 0 of 18 |
| MMSYGWLLGSRNKRNVA | DRETRES | QQYDRLPLS | 0.27 0.38 0.12 0.12 0.28 0.40 | 1 of 18 (2.59) |
| QLLMATMQGQYNRNSVA | HAVTRND | QSYHRLPLS | 2.04 1.63 1.82 1.84 1.53 1.56 | 0 of 18 |
| KISSLTNYESVNKNSVA | EMSTRPS | QSYHRLPLS | 1.15 0.72 1.00 1.22 0.94 1.26 | 0 of 18 |
| IISGSMLMESRNKNSVA | NAELREY | QHYDRLPLS | 0.92 0.97 0.67 0.89 0.77 0.89 | 0 of 18 |
| KLSMSYRMESENKNSIA | ELVTRMS | QQYHRLPLS | 1.03 1.13 0.69 0.81 0.52 0.85 | 0 of 18 |
| KIRQSTGYESRNKDSIA | DNSTRGR | QQYHRLPLS | 2.83 1.51 1.56 2.30 1.44 1.92 | 1 of 18 (2.45) |
| KLYQATALTSSVRNNVA | DLNERER | QQYFRLPLS | 0.70 0.36 0.52 0.51 0.55 0.54 | 0 of 18 |
| TISQSMVMENQFKNSVA | QASTRES | QCYDRLPLS | 1.93 2.40 1.62 0.95 2.08 2.16 | 1 of 18 (2.72) |
| HLGGLMTWEEKARNSIA | QQETRAE | QQYHHLPLS | 0.45 0.38 0.45 0.26 0.59 0.66 | 1 of 18 (2.72) |
| MISQAFLIGMKAKNSVA | QTNTREE | QQYDRLPLI | 1.43 0.77 0.26 1.08 0.84 0.56 | 0 of 18 |
| KLGAVTSYEMQNKNSVA | QMTTRES | QQYHRLPLS | 0.10 0.22 -0.11 -0.05 0.23 0.38 | 1 of 18 (2.84) |
| MLSDLNKMGVRNTQSVA | DNSTRGA | QQYDRLPLS | 1.71 1.74 2.91 2.77 1.41 2.08 | 0 of 18 |
| TLVQSVMGSSRTKNSVA | NAETREQ | QHYHRLPLS | 1.58 1.02 1.54 1.80 1.79 1.25 | 0 of 18 |
| MISQLFMYGSRNYNSIA | QASTRFK | QQYDRLPLE | 1.52 2.18 nd nd nd 2.03 | 0 of 18 |
| TISQMFLGESRNRNSVA | QASTRPS | QSYDRLPLS | 0.81 0.82 1.02 0.84 0.68 0.63 | 2 of 18 (2.32) |
| KLSIMHQVESINKSNVA | EMVTRES | QQYHRLPLS | 1.57 1.28 1.40 1.19 1.52 1.18 | 2 of 18 (3.10) |

Repeated from above, the 3 best binders with a signal in all replicates:

| CDR-L1 | CDR-L2 | CDR-L3 | log10 Kd (nM) by replicate | empty controls |
|---|---|---|---|---|
| IISQSVMFQQTLINSVA | NAQTREA | QQYHRLPLS | 0.49 -0.06 -0.01 0.16 -0.07 0.25 | 1 of 18 (4.65) |
| KLGAVTSYEMQNKNSVA | QMTTRES | QQYHRLPLS | 0.10 0.22 -0.11 -0.05 0.23 0.38 | 1 of 18 (2.84) |
| MISDATMYGSRNKNSVA | DLSTRGS | QQYHRLPLS | 0.14 0.18 0.10 0.02 0.06 0.29 | 0 of 18 |

The authors' rule: three or more of the six replicates give a measured affinity, fewer mean a poor binder.
A sequence measured in both rounds can read differently, since the two assays cover different ranges.
The parent sequence was in this pool as ten entries: three were never detected, three once, and four in most replicates, with averages from 0.34 to 2.37.